Consider one compound from patent US20090048190A1, “Antiviral activity and resolution of 2-hydroxymethyl-5(5-fluorocytosin-1-yl)-1,3-oxathiolane” (priority 1990, published 2009).

For this series the following is noted: 33.3 mg/kg; for CLT: I.V.; for Ka (first order absorption rate constant): P.O.
Where [1] appears, read: individual monkeys (RUh, RMi, RJd).

Where “and” joins values, the source holds several entries; their conditions need not be identical. Equal values may be shown once. Read-outs that look alike come from different tables or passages of the source.

With `Nc1nc(=O)n([C@@H]2CS[C@H](CO)O2)cc1F` (racemic) [(±)-FTC, (±)-β-D,L-2-hydroxymethyl-5-(5-fluorocytosin-1-yl)-1,3-oxathiolane], under setting [1], the CLT was 21 mL/min/kg and 24.7 mL/min/kg and 29 mL/min/kg; the “Ka (first order absorption rate constant)” value is 0.48 h−^1 and 0.43 h−^1 and 0.31 h−^1. Besides, where the note is “mean”, the CLT was 24.8 mL/min/kg and the “Ka (first order absorption rate constant)” value is 0.41 h−^1.
